From ChEMBL document CHEMBL5505970 (J Med Chem, 2024)

What was measured:
Jurkat [1] = assay: Selectivity for ATR over BIKE in human Jurkat cell lysates in presence of biotinylated ADP by KiNativ profiling based mass spectrometry
Jurkat [2] = assay: Selectivity for ATR over PDK1 in human Jurkat cell lysates in presence of biotinylated ADP by KiNativ profiling based mass spectrometry
Jurkat [3] = assay: Selectivity for ATR over PKD3 in human Jurkat cell lysates in presence of biotinylated ADP by KiNativ profiling based mass spectrometry
Jurkat [4] = assay: Selectivity for ATR over MAP2K1 in human Jurkat cell lysates in presence of biotinylated ADP by KiNativ profiling based mass spectrometry
Jurkat [5] = assay: Selectivity for ATR over CHK2 in human Jurkat cell lysates in presence of biotinylated ADP by KiNativ profiling based mass spectrometry
Jurkat [6] = assay: Selectivity for ATR over LATS2 in human Jurkat cell lysates in presence of biotinylated ADP by KiNativ profiling based mass spectrometry
Jurkat [7] = assay: Selectivity for ATR over SBK in human Jurkat cell lysates in presence of biotinylated ADP by KiNativ profiling based mass spectrometry
Jurkat [8] = assay: Selectivity for ATR over MAP3K3 in human Jurkat cell lysates in presence of biotinylated ADP by KiNativ profiling based mass spectrometry
Jurkat [9] = assay: Selectivity for ATR over MELK in human Jurkat cell lysates in presence of biotinylated ADP by KiNativ profiling based mass spectrometry
Jurkat [10] = assay: Selectivity for ATR over PKD2 in human Jurkat cell lysates in presence of biotinylated ADP by KiNativ profiling based mass spectrometry
Jurkat [11] = assay: Selectivity for ATR over Wnk1/2/4 in human Jurkat cell lysates in presence of biotinylated ADP by KiNativ profiling based mass spectrometry
Jurkat [12] = assay: Selectivity for ATR over DLK in human Jurkat cell lysates in presence of biotinylated ADP by KiNativ profiling based mass spectrometry
Jurkat [13] = assay: Selectivity for ATR over PI4KB in human Jurkat cell lysates in presence of biotinylated ADP by KiNativ profiling based mass spectrometry
Jurkat [14] = assay: Selectivity for ATR over AKT2/3 in human Jurkat cell lysates in presence of biotinylated ADP by KiNativ profiling based mass spectrometry
Jurkat [15] = assay: Selectivity for ATR over MPSK1 in human Jurkat cell lysates in presence of biotinylated ADP by KiNativ profiling based mass spectrometry
Jurkat [16] = assay: Selectivity for ATR over CHK1 in human Jurkat cell lysates in presence of biotinylated ADP by KiNativ profiling based mass spectrometry
Jurkat [17] = assay: Selectivity for ATR over JNK1/2/3 in human Jurkat cell lysates in presence of biotinylated ADP by KiNativ profiling based mass spectrometry
Jurkat [18] = assay: Selectivity for ATR over NDR1 in human Jurkat cell lysates in presence of biotinylated ADP by KiNativ profiling based mass spectrometry
Jurkat [19] = assay: Selectivity for ATR over MAP4K3 in human Jurkat cell lysates in presence of biotinylated ADP by KiNativ profiling based mass spectrometry
Jurkat [20] = assay: Selectivity for ATR over MAP3K2 in human Jurkat cell lysates in presence of biotinylated ADP by KiNativ profiling based mass spectrometry
Jurkat [21] = assay: Selectivity for ATR over FYN/SRC/YES in human Jurkat cell lysates in presence of biotinylated ADP by KiNativ profiling based mass spectrometry
Jurkat [22] = assay: Selectivity for ATR over AMPKa1/a2 in human Jurkat cell lysates in presence of biotinylated ADP by KiNativ profiling based mass spectrometry
Jurkat [23] = assay: Selectivity for ATR over AKT1 in human Jurkat cell lysates in presence of biotinylated ADP by KiNativ profiling based mass spectrometry
Jurkat [24] = assay: Selectivity for ATR over NEK7 in human Jurkat cell lysates in presence of biotinylated ADP by KiNativ profiling based mass spectrometry
Jurkat [25] = assay: Selectivity for ATR over CDK10 in human Jurkat cell lysates in presence of biotinylated ADP by KiNativ profiling based mass spectrometry
Jurkat [26] = assay: Selectivity for ATR over NDR2 in human Jurkat cell lysates in presence of biotinylated ADP by KiNativ profiling based mass spectrometry
Jurkat [27] = assay: Selectivity for ATR over CCRK in human Jurkat cell lysates in presence of biotinylated ADP by KiNativ profiling based mass spectrometry
Jurkat [28] = assay: Selectivity for ATR over NLK in human Jurkat cell lysates in presence of biotinylated ADP by KiNativ profiling based mass spectrometry
Jurkat [29] = assay: Selectivity for ATR over SYK in human Jurkat cell lysates in presence of biotinylated ADP by KiNativ profiling based mass spectrometry
Jurkat [30] = assay: Selectivity for ATR over LKB1 in human Jurkat cell lysates in presence of biotinylated ADP by KiNativ profiling based mass spectrometry
Jurkat [31] = assay: Selectivity for ATR over MAPKAPK2/3 in human Jurkat cell lysates in presence of biotinylated ADP by KiNativ profiling based mass spectrometry
Jurkat [32] = assay: Selectivity for ATR over TAO1/3 in human Jurkat cell lysates in presence of biotinylated ADP by KiNativ profiling based mass spectrometry
Jurkat [33] = assay: Selectivity for ATR over PKCh in human Jurkat cell lysates in presence of biotinylated ADP by KiNativ profiling based mass spectrometry
Jurkat [34] = assay: Selectivity for ATR over SGK3 in human Jurkat cell lysates in presence of biotinylated ADP by KiNativ profiling based mass spectrometry
Jurkat [35] = assay: Selectivity for ATR over GSK3A in human Jurkat cell lysates in presence of biotinylated ADP by KiNativ profiling based mass spectrometry
Jurkat [36] = assay: Selectivity for ATR over PIK3CA in human Jurkat cell lysates in presence of biotinylated ADP by KiNativ profiling based mass spectrometry
Jurkat [37] = assay: Selectivity for ATR over NEK8 in human Jurkat cell lysates in presence of biotinylated ADP by KiNativ profiling based mass spectrometry
Jurkat [38] = assay: Selectivity for ATR over RSK1 domain 1 in human Jurkat cell lysates in presence of biotinylated ADP by KiNativ profiling based mass spectrometry
Jurkat [39] = assay: Selectivity for ATR over BARK1 in human Jurkat cell lysates in presence of biotinylated ADP by KiNativ profiling based mass spectrometry
Jurkat [40] = assay: Selectivity for ATR over STLK6 in human Jurkat cell lysates in presence of biotinylated ADP by KiNativ profiling based mass spectrometry
Jurkat [41] = assay: Selectivity for ATR over JAK1 domain 1 in human Jurkat cell lysates in presence of biotinylated ADP by KiNativ profiling based mass spectrometry
Jurkat [42] = assay: Selectivity for ATR over TLK1 in human Jurkat cell lysates in presence of biotinylated ADP by KiNativ profiling based mass spectrometry
Jurkat [43] = assay: Selectivity for ATR over p38b in human Jurkat cell lysates in presence of biotinylated ADP by KiNativ profiling based mass spectrometry
Jurkat [44] = assay: Selectivity for ATR over LCK in human Jurkat cell lysates in presence of biotinylated ADP by KiNativ profiling based mass spectrometry
Jurkat [45] = assay: Selectivity for ATR over MAP2K7 in human Jurkat cell lysates in presence of biotinylated ADP by KiNativ profiling based mass spectrometry
Jurkat [46] = assay: Selectivity for ATR over PI4K2B in human Jurkat cell lysates in presence of biotinylated ADP by KiNativ profiling based mass spectrometry
Jurkat [47] = assay: Selectivity for ATR over MST3 in human Jurkat cell lysates in presence of biotinylated ADP by KiNativ profiling based mass spectrometry
Jurkat [48] = assay: Selectivity for ATR over MSK1 domain 1 in human Jurkat cell lysates in presence of biotinylated ADP by KiNativ profiling based mass spectrometry

Measured: Selectivity ratio

C[C@@H]1COCCN1c1cc([C@]2(O)C[C@H]3CC[C@@H](C2)O3)c2cnn(-c3cc[nH]n3)c2n1 [CAMONSERTIB]
10: Jurkat [1] | Jurkat [2] | Jurkat [3] | Jurkat [4] | Jurkat [5] | Jurkat [6] | Jurkat [7] | Jurkat [8] | Jurkat [9] | Jurkat [10] | Jurkat [11] | Jurkat [12] | Jurkat [13] | Jurkat [14] | Jurkat [15] | Jurkat [16] | Jurkat [17] | Jurkat [18] | Jurkat [19] | Jurkat [20] | Jurkat [21] | Jurkat [22] | Jurkat [23] | Jurkat [24] | Jurkat [25] | Jurkat [26] | Jurkat [27] | Jurkat [28] | Jurkat [29] | Jurkat [30] | Jurkat [31] | Jurkat [32] | Jurkat [33] | Jurkat [34] | Jurkat [35] | Jurkat [36] | Jurkat [37] | Jurkat [38] | Jurkat [39] | Jurkat [40] | Jurkat [41] | Jurkat [42] | Jurkat [43] | Jurkat [44] | Jurkat [45] | Jurkat [46] | Jurkat [47] | Jurkat [48]
